Data from article PMC11024108.
The list shows a part of the results.

Target: RCC1-like G exchanging factor-like protein (UniProt Q96I51)
Experiment: cross-link between two proteins; cross-linking mass spectrometry

**Q.** Which “listed as a hit” value does the source give for “Large ribosomal subunit protein mL64, Q8TAE8” here?
**A.** yes
